Values quoted from earlier work, collected in PMC11926880, “Procognitive Potential of Neuroprotective Triazine 5-HT6 Receptor Antagonists Tested on Chronic Activity In Vivo in Rats: Computer-Aided Insight into the Role of Chalcogen-Differences on the Pharmacological Profile” (ACS Chemical Neuroscience, 2025).

Design: method as in PMID 38190615
Details: serum, 1 mg/kg i.p.; cited from earlier work

CN1CCN(c2nc(N)nc(C(C)(C)[Se]c3ccc4ccccc4c3)n2)CC1 [PPK-32]
t0.5λz: 68.7 min
